Data as given in PubChem BioAssay AID720647 (Broad Institute, 2013).
The list shows a part of the results, in another mix than the full data. Activity calls are given as the source filed them.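 Rule for the calls: active = drop in luminescence signal, shown as inhibition above about 50% in the replicate tests (limit read from the data, passing the limit was not always enough); inconclusive = probably only some replicates passing the limit; inactive = the rest.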

These molecules were tested on Drosophila bursicon receptor LGR2 (rickets) (assay: LGR2 cAMP reporter signal reduction – cell-based, HEK293, CRE-luciferase reporter, bursicon stimulation, primary screen (AID 720647;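 note: agonist challenge used bursicon conditioned medium at about half maximal strength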)). Settings: bursicon-stimulated, 4 h, at 9.99 µM, stronger effect = higher value.

Compound | inhibition
[N-]=[N+]=NC1CCCCC1NC(=O)c1cc([N+](=O)[O-])cc([N+](=O)[O-])c1 (stereo not given) | inactive: -12%
COC(=O)C1(C)COP(=O)(N2CCCCCC2)OC1 (stereo not given) | inactive: -4.43%
CC(C)c1ccc(OP(=O)(Nc2ccccn2)Oc2ccccc2F)cc1 (stereo not given) | inactive: 4.45%
CC(C)NC(=O)NP(=O)(Oc1ccccc1)Oc1ccccc1 | inactive: -5.45%
O=P(Nc1nccs1)(Oc1ccccc1)Oc1ccccc1 | inactive: 4.5%
CCOP1(=S)c2c(C)nn(CCC#N)c2N=C(c2ccccc2F)N1C (stereo not given) | inactive: -2.57%
O=C(O)COc1ccc([As](=O)(O)O)cc1[N+](=O)[O-] | inactive: 8.98%
Nc1ccccc1[As](=O)(O)c1ccccc1 | inactive: 15%
NC(=O)Nc1ccc([As](=O)(O)O)cc1 | inactive: -2.34%
CCOP1(=S)c2c(C)nn(CCC#N)c2N=C(c2ccc(F)cc2)N1C (stereo not given) | inactive: 4.4%
N#CCCN(C(=O)COC(=O)C(O)(c1ccccc1)c1ccccc1)c1ccc(F)cc1 | inactive: 2.08%
CN(C(=O)Cc1ccc(Cl)c(Cl)c1)[C@H]1CC[C@@]2(CCCO2)C[C@@H]1N1CCCC1 | inactive: 0.056%
CN(C)C(=O)c1cc([N+](=O)[O-])cc2c1-c1c(cc([N+](=O)[O-])cc1[N+](=O)[O-])C2=O | active: 99%
O=C(OC1CN2CCC1CC2)c1ccc(Cl)cc1 (stereo not given) | inactive: 1.3%
CS(=O)(=O)c1ccc(Cl)c(NC(=O)COC(=O)C(O)(c2ccccc2)c2ccccc2)c1 | inactive: 0.651%
O=[As](O)(O)c1cccnc1 | inactive: -5.27%
COc1cc(C(=O)NCC2(N3CCOCC3)CCCCC2)cc(Cl)c1OC(C)C | inactive: 8.88%
Cc1cccc(OCC(=O)OC2CN3CCC2CC3)c1 (stereo not given) | inactive: 11.7%
O=[As](O)(c1cccc(O)c1)c1cccc(O)c1 | inactive: 1.39%
Nc1cccc2c([As](=O)(O)O)cccc12 | inactive: -0.13%
Cc1ccc(NCCc2c([N+](=O)[O-])cc([N+](=O)[O-])cc2[N+](=O)[O-])cc1 | inactive: -22.5%
CCCOP(=S)(Nc1nc(N)cc(=O)[nH]1)OCCC | inactive: 24.3%
CCOP(=O)(Nc1cccc2ccccc12)OCC | inactive: -1.37%

Compound | inhibition
COc1cc(C2NCCC3(OCCO3)C2(C)C)cc(OC)c1OC (stereo not given) | inactive: 4.81%
CCOP(=O)(NC(=NC(C)c1ccccc1)NC(C)c1ccccc1)OCC (stereo not given) | inactive: -3.45%
CCC1=CC2Cc3nc4ccc(Cl)cc4c(N)c3C(C1)C2 (stereo not given) | inactive: 22.8%
CCOP(=O)(Nc1ccc(C)cn1)OCC | inactive: 7.81%
CN(CCCl)Cc1cc(Cl)c(NC2=NCCN2)c(Cl)c1 | inactive: 6.3%
CC(C)(C)C(=O)NC(Sc1ncccn1)C(Cl)(Cl)Cl (stereo not given) | inactive: 0.449%
O=P1(N(CCCl)CCCl)NCCC(C(F)(F)F)O1 (stereo not given) | inactive: 13.6%
COc1ccccc1CNC(=O)COC(=O)C(O)(c1ccccc1)c1ccccc1 | inactive: -2.01%
CN(C(=O)Cc1ccc(Cl)c(Cl)c1)C1CCCC[C@@H]1N1CCCC1 (stereo not given in full) | inactive: 3.72%
CN(C(=O)Cc1ccc(Cl)c(Cl)c1)[C@@H]1CCCC[C@H]1N1CCCC1 | inactive: -3.14%
CC(C)/C=N\N=C(\N)N[N+](=O)[O-] | inactive: 18%
Cc1ccc(C(=O)OC2CN3CCC2CC3)cc1 (stereo not given) | inactive: -3.09%
CC1CCC(C(C)C)C(OP(=O)(Nc2ccccn2)c2ccccc2)C1 (stereo not given) | inactive: 16.2%
CN(C)C1(CNC(=O)c2ccc(S(C)(=O)=O)cc2)CCCCC1 | inactive: -1.82%
CCCC1OP(=O)(Nc2ccccc2)OCC1CC (stereo not given) | inactive: -0.685%
O=C(/C=C/c1ccccc1)OC1CN2CCC1CC2 (stereo not given) | inactive: -12.3%
Cc1ccc(S(=O)(=O)N(CCCN)CCCc2c(C)nc(N)[nH]c2=O)cc1 | inactive: -3.03%
Nc1cccc([As](=O)(O)c2ccccc2)c1 | inactive: -2.25%
O=[As](O)(c1cccs1)c1cccs1 | inactive: 20.7%
NS(=O)(=O)c1cccc(NC(=O)COC(=O)C(O)(c2ccccc2)c2ccccc2)c1 | inactive: 6.87%
CN(C)C1(CNC(=O)c2ccc(Cl)c(S(N)(=O)=O)c2)CCCCC1 | inactive: -5.47%
O=P(Nc1ccccn1)(c1ccc(Br)cc1)c1ccc(Br)cc1 | inactive: 13%
COc1ccc(N)c([N+](=O)[O-])c1[N+](=O)[O-] | inactive: -10.8%

Compound | inhibition
Nc1ccc(CCCCOc2ccccc2)cc1 | inactive: -45.1%
C[C@H]1OP(=O)(Oc2ccccc2)[C@H](O)[C@H](O)[C@H]1N=[N+]=[N-] (stereo not given in full) | inactive: -0.866%
O=P(Nc1nc2ccccc2s1)(c1ccccc1)c1ccccc1 | inactive: 1.01%
O=[As](O)(c1ccccc1)c1ccc(O)cc1 | inactive: -17.8%
O=[N+]([O-])c1ncn(CCn2cnc([N+](=O)[O-])n2)n1 | inactive: -4.91%
CC(=O)NC(SC(=S)N(C)C)C(Cl)(Cl)Cl (stereo not given) | inactive: 3.73%
C(Cc1nn[nH]n1)Cc1nn[nH]n1 | inactive: 5.28%
Nc1ccc([As](=O)(O)c2ccc([N+](=O)[O-])cc2)cc1 | inactive: 8.09%
C/C(N)=N\P(=O)(OCc1ccccc1)OCc1ccccc1 | inactive: 6.27%
CC(C)C(=O)NC(Sc1ccccc1)C(Cl)(Cl)Cl (stereo not given) | inactive: 14.4%
CCOc1ccc(C2=NCC(CBr)S2)cc1 (stereo not given) | inactive: -8.11%
CC(C)(C)C(=O)NC(Sc1ccccc1)C(Cl)(Cl)Cl (stereo not given) | inactive: -1.94%
CCc1cc(O)c([N+](=O)[O-])c(C)c1[N+](=O)[O-] | inactive: -2.98%
C[C@H]1OP(=O)(Oc2ccccc2)C[C@@H]2O[C@@H]21 (stereo not given in full) | inactive: 1.14%
Cc1ccccc1CN(C)C(=O)COC(=O)C(O)(c1ccccc1)c1ccccc1 | inactive: 10.2%
COC(=O)C1(C)COP(=O)(NCc2ccccc2)OC1 (stereo not given) | inactive: 3.45%
CC(=O)c1ccc(N2CC2c2ccncc2)cc1 (stereo not given) | inactive: 2.72%
N#C/C(=C\c1ccc(N(CCBr)CCBr)cc1)C(N)=O | inactive: -19%
CC(=O)Nc1ccc([As](=O)(O)O)c(O)c1 | inactive: -2.14%
c1ccc(-c2nn[nH]n2)c(-c2nn[nH]n2)c1 | inactive: 9.09%
O=C(NC1CCS(=O)(=O)C1)NP(=S)(Oc1ccccc1)Oc1ccccc1 (stereo not given) | inactive: -32%
CCNC(=S)/N=C(\N)N[N+](=O)[O-] | inactive: 6.81%
O=P1(N(CCCl)CCCl)OCCC2CCCCN21 (stereo not given) | inactive: -20.9%

Compound | inhibition
O=C(OC1CN2CCC1CC2)c1ccccc1 (stereo not given) | inactive: -15.1%
Cc1ccc(OP(=O)(Nc2ccccn2)Oc2ccc(C)cc2)cc1 | inactive: 4.32%
CC(=O)NC(SC(=S)N(CC(C)C)CC(C)C)C(Cl)(Cl)Cl (stereo not given) | inactive: 3.62%
O=c1c2cc([N+](=O)[O-])ccc2[nH]c2c([N+](=O)[O-])cc([N+](=O)[O-])cc12 | active: 97.5%
CN(C)C(=O)Oc1noc2ccccc12 | inactive: 5.27%
CC(NC(=O)COC(=O)C(O)(c1ccccc1)c1ccccc1)c1ccccc1 (stereo not given) | inactive: -2.8%
Cc1ccccc1OP(=O)(Nc1ccccn1)Oc1ccccc1C | inactive: 19.9%
O=P(Nc1nc2ccc(Cl)cc2s1)(c1ccccc1)c1ccccc1 | inactive: -2.56%
CN(C)P(=O)(N(C)C)n1c(Nc2ccccc2)nnc1-c1ccccc1 | inactive: -18.3%
CCCC1OP(N)(=O)OCC1CC (stereo not given) | inactive: 0.494%
CC(=O)Nc1ccc([As](=O)(O)O)cc1 | inactive: 7.32%
O=C(O)c1ccccc1[As](=O)(O)O | inactive: -14.3%
CCn1c(=O)n(C2CCN(CC3CCCCCCC3)C[C@H]2CO)c2ccccc21 (stereo not given in full) | inactive: -23%
CN(C(=O)Cc1ccc(Cl)c(Cl)c1)[C@H]1CCCC[C@@H]1N1CCCC1 | inactive: 6.98%
Cc1ccc(NP(=O)(Oc2ccccc2F)Oc2ccccc2F)nc1 | inactive: 8.92%
Cc1cc(SC(NC(=O)c2ccc(F)cc2)C(Cl)(Cl)Cl)ncn1 (stereo not given) | inactive: 1.22%
Nc1cccc2ccc([As](=O)(O)O)cc12 | inactive: 5.91%
CCN(N=Nc1nonc1N)c1nonc1N | inactive: 0.514%
CN(C(=O)Cc1ccccc1)C1CC[C@@]2(CCCO2)C[C@@H]1N1CCCC1 (stereo not given in full) | inactive: 6.48%
CN(C(=O)Cc1ccc(Cl)c(Cl)c1)[C@H]1CCCC[C@H]1N1CCCC1 | inactive: 22.4%
NC(=O)c1cc([N+](=O)[O-])cc([N+](=O)[O-])c1N | inactive: 2.12%
Clc1ccc(Cl)c(NC2=NCC(CBr)S2)c1 (stereo not given) | inactive: -8.48%
Cc1ccc(OP(=O)(Nc2nccs2)Oc2ccc(C)cc2)cc1 | inactive: 3.14%

Compound | inhibition
COc1ccccc1OP(=O)(Nc1ccc(C)cn1)Oc1ccccc1OC | inactive: -14.6%
O=C(NC(Sc1ccncn1)C(Cl)(Cl)Cl)c1ccccc1 (stereo not given) | inactive: 7.1%
Oc1ccccc1CNc1ccccn1 | inactive: 5.41%
Nc1cc(N)c2nonc2c1[N+](=O)[O-] | inactive: 12.4%
CC(C)CC(=O)NC(Sc1ccc(Cl)cc1)C(Cl)(Cl)Cl (stereo not given) | inactive: 16.6%
COc1ccc(C2=NCC(CBr)S2)cc1 (stereo not given) | inactive: 0.821%
O=[N+]([O-])c1cc([N+](=O)[O-])c(CCNc2ccccc2)c([N+](=O)[O-])c1 | inactive: -13.5%
Cc1ccc(NP(=O)(Oc2ccccc2)Oc2ccccc2)nc1 | inactive: -4%
CCN(/C(=N/P(=O)(N1CCOCC1)N1CCOCC1)N1CCOCC1)c1ccc(OC)cc1 | inactive: -2.34%
C[N+]1=C2C=CC=CC=C2SC12C([N+](=O)[O-])=CC([N+](=O)[O-])=C[C-]2[N+](=O)[O-] (stereo not given) | inactive: -1.07%
Nc1ccc([As](=O)(O)c2ccc(N)cc2)cc1 | inactive: 10.6%
CC1CCN(C(=O)Oc2c(Cl)cc(Cl)c3cccnc23)CC1 | inactive: -0.758%
c1cc(-c2nn[nH]n2)ccc1-c1nn[nH]n1 | inactive: -3.31%
CN(C)C(=O)OCCc1n(C)cc[n+]1C | inactive: -4.69%
CC(C)c1nc(Nc2ccccc2)n(P(=O)(N(C)C)N(C)C)n1 | inactive: 12.8%
CC(C)=N/N=C(\N)N[N+](=O)[O-] | inactive: 1.77%
O=P1(N(CCCl)CCCl)OCCCS1 (stereo not given) | inactive: -3.59%
O=C(Nc1cc([As](=O)(O)O)ccc1O)c1ccccc1 | inactive: 2.07%
O=[N+]([O-])c1ncn(CCn2ncnc2[N+](=O)[O-])n1 | inactive: 5.96%
CC(C)(C)C(=O)NC(Sc1ccncn1)C(Cl)(Cl)Cl (stereo not given) | inactive: -6.23%
O=C(O)CNc1ccc([As](=O)(O)O)cc1 | inactive: 18%
COC(=O)C1(C)COP(=O)(Nc2ccccc2)OC1 (stereo not given) | inactive: 10.5%
O=[N+]([O-])c1cccc(NC2=NCC(CBr)S2)c1 (stereo not given) | inactive: -3.78%
